Binding of CDR-mutated scFvs to a peptide of the spike HR2 region

Values reported by Engelhart et al. 2022, doi:10.1038/s41597-022-01779-4 (FLAb copy).

Binding partner: SARS-CoV-2 spike HR2 peptide, sequence PDVDLGDISGINAS.

Parent: Ab-14, a human scFv built as VH, a 15-residue (Gly4Ser)3 linker, VL. Only the CDRs of the heavy chain vary.
VH: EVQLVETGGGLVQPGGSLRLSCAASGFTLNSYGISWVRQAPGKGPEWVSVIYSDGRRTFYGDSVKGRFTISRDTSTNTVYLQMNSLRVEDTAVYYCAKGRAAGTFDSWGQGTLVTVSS
VL: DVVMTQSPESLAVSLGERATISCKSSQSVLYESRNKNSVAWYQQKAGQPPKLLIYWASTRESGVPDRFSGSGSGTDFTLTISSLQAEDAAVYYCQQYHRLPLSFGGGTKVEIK

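Phage display of a naive human antibody library on the peptide gave the parent. In library AAYL49, one, two or three CDR residues were substituted; doubles and triples were drawn at random. In AlphaSeq, yeast of one mating type display the scFv and yeast of the other type display the target. Binding brings cells together so that they mate, and sequencing counts the barcode pairs among the diploids. The ratio of observed to expected reads was calibrated, replicate by replicate, on BCL2-family standards whose Kd was known from biolayer interferometry. There are three technical replicates.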

Changes read parent residue, position, new residue, counted from the first residue of the VH shown.
The read-out is the apparent dissociation constant on a log10 scale (nM): the lower, the stronger.
Replicates are averaged; those with no signal do not enter the mean.
A pair that was not seen in any replicate is written "no signal"; this usually means weak binding, but a binder can also be missed.
Parent in this assay: reference entry 0.65, copy in this library 4.11 (one replicate of three).
Background: pairings of library AAYL49 with three empty control strains gave a value in 15% of cases (median 4.06, 5th percentile 2.83). Values in that range, when seen in few replicates, are hard to tell from nonspecific mating. For each scFv, signals with the empty controls are counted beside the result.

changes	mean log10 Kd (nM)	replicates with signal	empty controls
R56K+V64D	no signal	0/3	0/9
G26F+R56Y+A102M	4.97	1/3	0/9
L29V+S31D+F59H	5.34	1/3	3/9
S31Q+Y52M+A102D	4.38	2/3	4/9
R56L+R100W+A102V	1.89	3/3	0/9
L29Y+T58V+G99H	4.37	2/3	4/9
K65D+G99F	4.47	2/3	3/9
V64N+G99A+S107E	no signal	0/3	1/9
R57T+G99Q+D106C	2.90	1/3	1/9
Y52L+D62K+S107V	no signal	0/3	0/9
S53L+D62E+A102R	no signal	0/3	1/9
G26R+G99R+R100Y	4.26	2/3	1/9
I34S+K65M+T104Y	no signal	0/3	2/9
S35N+R56W+G99M	no signal	0/3	0/9
Y60E+A102W+D106I	3.24	1/3	1/9
D54Y+D62M+R100N	no signal	0/3	0/9
F27N+V50W+R100G	4.27	2/3	4/9
I51Q+D62S	no signal	0/3	2/9
F27T+N30I+D54W	no signal	0/3	0/9
T28F+D54P+F59K	3.61	2/3	1/9
I51N+K65C+A101C	no signal	0/3	3/9
Y32A+R57P+A101T	5.66	2/3	3/9
G55S+G99V+F105M	no signal	0/3	1/9
I51F+G99N+A101F	3.73	1/3	0/9
D62K+V64I+F105L	4.57	1/3	2/9
G33T+K65A+A101H	no signal	0/3	3/9
I34P+R56H+D106I	no signal	0/3	0/9
D54M+S63L	4.49	2/3	6/9
I34Y+S107P	no signal	0/3	0/9
G26M+S31I+Y52C	4.73	1/3	5/9
R56G+Y60Q+A102F	no signal	0/3	1/9
L29G+T58M+D106P	no signal	0/3	0/9
S35G+I51C+G55H	no signal	0/3	1/9
S31F+G99K+S107K	no signal	0/3	0/9
V50E+T58K+K65M	no signal	0/3	1/9
S35E+G99I+S107R	no signal	0/3	0/9
G33W+G99A+G103E	no signal	0/3	1/9
Y32E+I51T+K65Q	5.91	2/3	2/9
I34H+F59C+G99I	3.73	1/3	1/9
F27G+D54R	3.01	1/3	0/9
D54E+S63W	3.22	1/3	1/9
V50H+Y52W+V64W	4.78	2/3	1/9
V50Q+G99E+S107H	no signal	0/3	0/9
G55I+K65E+G103T	3.84	1/3	2/9
D54W+V64L	no signal	0/3	2/9
S35H+V64K+K65F	3.01	1/3	0/9
R56H+D106M	1.99	3/3	4/9
G26S+R57F	no signal	0/3	0/9
T28M+Y32C+F59K	no signal	0/3	0/9
S63H+K65M+F105C	3.51	3/3	1/9
F59W+Y60A+V64M	no signal	0/3	0/9
I51T+R57S+F105D	5.07	3/3	5/9
D62C+V64R+F105Q	6.45	1/3	2/9
Y32P+D62A+A101H	no signal	0/3	0/9

Top 4 of the variants detected in all replicates, tightest first:

changes	mean log10 Kd (nM)	replicates with signal	empty controls
R56L+R100W+A102V	1.89	3/3	0/9
R56H+D106M	1.99	3/3	4/9
S63H+K65M+F105C	3.51	3/3	1/9
I51T+R57S+F105D	5.07	3/3	5/9